Literature values as cited in PMC3086679.

Tests used:
[1] = target: mastoparan (Vespula lewisii) (UniProt P01514)
[2] = target: melittin (Apis mellifera) (UniProt P01501)

Question: Which results are given for calmodulin (from UniProt P0DP23)?
Answer: Kd [1]: 0.3 nM; Kd [2]: 3 nM
